Test results from PubChem BioAssay AID686996 (Broad Institute, 2013).
The list shows a part of the results, in another mix than the full data. The source made the active and inactive calls.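 How the source made its calls: active means mean inhibition across replicates at least about 35%, with every replicate also reaching that limit (limit read from the data); inconclusive means only one of the two criteria met; inactive means neither criterion met.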

Protein sequences, listed by entry. Tags and fused reporters are not part of them. Lines headed by an entry give the natural chain unless they say otherwise; changes in a name come on top.
UniProt P55212: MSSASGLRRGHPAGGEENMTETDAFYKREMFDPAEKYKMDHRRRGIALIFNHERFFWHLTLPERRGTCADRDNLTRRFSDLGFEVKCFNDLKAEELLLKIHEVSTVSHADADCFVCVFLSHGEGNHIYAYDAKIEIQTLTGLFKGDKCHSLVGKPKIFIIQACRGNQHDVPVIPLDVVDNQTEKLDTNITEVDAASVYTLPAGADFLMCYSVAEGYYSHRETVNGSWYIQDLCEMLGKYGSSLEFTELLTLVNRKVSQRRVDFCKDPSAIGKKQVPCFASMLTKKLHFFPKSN

What follows are compounds tested against Caspase-6 (Homo sapiens) (UniProt P55212) (assay: human caspase-6 inhibitors, primary screen, biochemical, VEID-R110 fluorescence, single point, set 2 (AID 686996;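 further: 0% = median of neutral control wells and 100% = no fluorescence left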)). Settings: purified caspase-6, Z-VEID-R110 cleavage fluorescence; at 12.5 µM; hits give high values.

| SMILES | inhibition |
| --- | --- |
| Cc1ccc(NP(=O)(Oc2ccccc2)Oc2ccccc2)nc1 | inactive: -9.39% |
| CCN(/C(=N/P(=O)(N1CCOCC1)N1CCOCC1)N1CCOCC1)c1ccc(OC)cc1 | inactive: -1.03% |
| C[N+]1=C2C=CC=CC=C2SC12C([N+](=O)[O-])=CC([N+](=O)[O-])=C[C-]2[N+](=O)[O-] (stereo unspecified) | active: 83.4% |
| Nc1ccc([As](=O)(O)c2ccc(N)cc2)cc1 | inactive: 1.98% |
| c1cc(-c2nn[nH]n2)ccc1-c1nn[nH]n1 | inactive: -2.05% |
| CC(C)=N/N=C(\N)N[N+](=O)[O-] | inactive: 1.98% |
| CC(C)c1nc(Nc2ccccc2)n(P(=O)(N(C)C)N(C)C)n1 | inactive: 0.962% |
| O=P(Nc1ccccn1)(c1ccc(Br)cc1)c1ccc(Br)cc1 | inactive: -0.039% |
| CN(C)C1(CNC(=O)c2ccc(Cl)c(S(N)(=O)=O)c2)CCCCC1 | inactive: -2.18% |
| Nc1ccc(CCCCOc2ccccc2)cc1 | inactive: 2.71% |
| COc1ccc(N)c([N+](=O)[O-])c1[N+](=O)[O-] | inactive: 24.9% |
| C[C@H]1OP(=O)(Oc2ccccc2)[C@H](O)[C@H](O)[C@H]1N=[N+]=[N-] (stereo partly specified) | inactive: 5.76% |
| O=P(Nc1nc2ccccc2s1)(c1ccccc1)c1ccccc1 | inactive: 1.1% |
| O=[As](O)(c1ccccc1)c1ccc(O)cc1 | inactive: 13.9% |
| O=[N+]([O-])c1ncn(CCn2cnc([N+](=O)[O-])n2)n1 | inactive: -0.44% |
| CC(=O)NC(SC(=S)N(C)C)C(Cl)(Cl)Cl (stereo unspecified) | inactive: -1.1% |
| Nc1ccc([As](=O)(O)c2ccc([N+](=O)[O-])cc2)cc1 | inactive: 6% |
| C(Cc1nn[nH]n1)Cc1nn[nH]n1 | inactive: 1.42% |
| C/C(N)=N\P(=O)(OCc1ccccc1)OCc1ccccc1 | inactive: 0.567% |
| Cc1ccc(NP(=O)(Oc2cccc(C)c2)Oc2cccc(C)c2)nc1 | inactive: -0.683% |
| c1ccc(-c2nn[nH]n2)c(-c2nn[nH]n2)c1 | inactive: -2.91% |

| SMILES | inhibition |
| --- | --- |
| CCNC(=S)/N=C(\N)N[N+](=O)[O-] | inactive: -0.814% |
| O=C(NC1CCS(=O)(=O)C1)NP(=S)(Oc1ccccc1)Oc1ccccc1 (stereo unspecified) | inactive: -2.88% |
| O=P1(N(CCCl)CCCl)OCCC2CCCCN21 (stereo unspecified) | inactive: -127% |
| O=C(OC1CN2CCC1CC2)c1ccccc1 (stereo unspecified) | inactive: -3.29% |
| Cc1ccc(OP(=O)(Nc2ccccn2)Oc2ccc(C)cc2)cc1 | inactive: -0.879% |
| CN(C)C(=O)Oc1noc2ccccc12 | inactive: 3.15% |
| O=c1c2cc([N+](=O)[O-])ccc2[nH]c2c([N+](=O)[O-])cc([N+](=O)[O-])cc12 | inactive: 18.6% |
| Cc1ccccc1OP(=O)(Nc1ccccn1)Oc1ccccc1C | inactive: 1.17% |
| CC(NC(=O)COC(=O)C(O)(c1ccccc1)c1ccccc1)c1ccccc1 (stereo unspecified) | inactive: -0.437% |
| CCOc1ccc(C2=NCC(CBr)S2)cc1 (stereo unspecified) | inactive: -3.09% |
| CC(C)(C)C(=O)NC(Sc1ccccc1)C(Cl)(Cl)Cl (stereo unspecified) | inactive: 1.01% |
| CCc1cc(O)c([N+](=O)[O-])c(C)c1[N+](=O)[O-] | inactive: 1.56% |
| C[C@@H]1C=CCP(=O)(Oc2ccccc2)O1 (stereo partly specified) | inactive: 1.71% |
| C[C@H]1OP(=O)(Oc2ccccc2)C[C@@H]2O[C@@H]21 (stereo partly specified) | inactive: -6.47% |
| Cc1ccccc1CN(C)C(=O)COC(=O)C(O)(c1ccccc1)c1ccccc1 | inactive: -0.086% |
| COC(=O)C1(C)COP(=O)(NCc2ccccc2)OC1 (stereo unspecified) | inactive: 1.15% |
| N#C/C(=C\c1ccc(N(CCBr)CCBr)cc1)C(N)=O | inactive: -1.12% |
| CC(=O)c1ccc(N2CC2c2ccncc2)cc1 (stereo unspecified) | inactive: 2.73% |
| CC(=O)Nc1ccc(Oc2c([N+](=O)[O-])cc([N+](=O)[O-])cc2[N+](=O)[O-])cc1 | inactive: 6.05% |
| CC(=O)Nc1ccc([As](=O)(O)O)c(O)c1 | inactive: 0.933% |
